From publication PMC5938747 come the findings set out here.

The data set relates to Nc1ccn([C@@H]2O[C@H](COP(=O)(O)OP(=O)(O)O)[C@@H](O)[C@H]2O)c(=O)n1. Description: purified protein. The following applies: 10 mM ATP, MgCl2 4 mM excess, pH 8.0, 25 °C.

Broadly, the kcat/Km is the second-order rate constant that governs catalysis at low substrate concentration. As to “Cj1415 (cytidine diphosphoramidate kinase, CDK) (Campylobacter jejuni subsp. jejuni NCTC 11168 = ATCC 700819)”, the kcat/Km worked out at 150 ± 30 M⁻¹ s⁻¹.
